Values of other authors as cited in patent US20230414711A1, “THERAPEUTICS TARGETING TRANSFORMING GROWTH FACTOR BETA FAMILY SIGNALING” (The Jackson Laboratory, priority 2020, published 2023).

The chains behind the UniProt entries cited, without tags or fusion partners. Residues count along the entry.
UniProt Q13705, 19-512: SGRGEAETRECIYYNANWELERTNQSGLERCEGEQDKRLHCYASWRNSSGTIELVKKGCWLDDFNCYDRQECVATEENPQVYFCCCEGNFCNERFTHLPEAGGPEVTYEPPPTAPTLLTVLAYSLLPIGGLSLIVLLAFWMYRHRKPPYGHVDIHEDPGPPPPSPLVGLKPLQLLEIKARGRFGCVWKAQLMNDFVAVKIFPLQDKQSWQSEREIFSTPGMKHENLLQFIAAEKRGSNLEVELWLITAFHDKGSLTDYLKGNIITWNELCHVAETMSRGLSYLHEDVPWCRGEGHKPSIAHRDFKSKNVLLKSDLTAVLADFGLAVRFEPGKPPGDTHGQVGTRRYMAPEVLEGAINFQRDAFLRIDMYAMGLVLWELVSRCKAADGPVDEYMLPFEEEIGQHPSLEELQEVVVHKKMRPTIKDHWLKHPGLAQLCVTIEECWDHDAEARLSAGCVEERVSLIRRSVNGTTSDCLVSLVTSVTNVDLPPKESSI

Target: ACVR2B (Homo sapiens, UniProt Q13705)
Conditions: initial publication

higher affinity for ACVR2B compared to ACVR2: over 200 fold
Substance: bimagrumab: monoclonal antibody targeting ACVR2B, developed by Novartis
